# Measured affinities in a library of Ab-14 heavy chain variants

All variants were tested on one target, the spike HR2 peptide PDVDLGDISGINAS (SARS-CoV-2).

Parent: Ab-14, a human scFv built as VH, a 15-residue (Gly4Ser)3 linker, VL. Only the CDRs of the heavy chain vary.
VH: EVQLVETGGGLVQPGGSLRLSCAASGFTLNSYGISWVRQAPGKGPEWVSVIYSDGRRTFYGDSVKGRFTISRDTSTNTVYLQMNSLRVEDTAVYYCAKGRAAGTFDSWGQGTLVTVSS
VL: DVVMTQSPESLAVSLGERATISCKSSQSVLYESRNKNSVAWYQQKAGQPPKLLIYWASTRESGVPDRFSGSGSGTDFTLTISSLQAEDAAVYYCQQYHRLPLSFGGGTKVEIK

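Phage display of a naive human antibody library on the peptide gave the parent. The variants were designed computationally from a first round of random CDR variants and then made and measured. Group labels follow the data file (En: ensemble of fine-tuned language models; HC: hill climbing; Gen: genetic algorithm; Gibbs: Gibbs sampling; a sequence that several methods proposed may carry one label only). Affinity was read by AlphaSeq, a pooled yeast mating assay with surface-displayed partners. Pairs that bind mate more often; barcode pairs of the diploids are counted by sequencing. The ratio of observed to expected reads was calibrated, replicate by replicate, on BCL2-family standards whose Kd was known from biolayer interferometry. The assay was run in six technical replicates.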

Variants are written as CDR1, CDR2 and CDR3 of the heavy chain (limits as in the source). Parent: GFTLNSYGIS, VIYSDGRRTFYGDSVK, GRAAGTFDS. This list holds designs with more than six substitutions. Values are log10 of the apparent Kd in nM; lower means stronger binding. A pair that was not seen in that replicate is written "ND"; this usually means weak binding, but a binder can also be missed. Empty control strains, which show no peptide, gave a signal in 1% of pairings with all heavy chain designs; the median was 2.08 and 95% of these signals were weaker than 0.84. No background was subtracted. The authors' rule: three or more of the six replicates give a measured affinity, fewer mean a poor binder. The range of this assay differs from that of the first round, and the authors advise against merging the two.

The variant GKSVDEYGIS / VIYADGMRAEYQDSVK / GTTGGDVFV [En_Gibbs] showed ND, ND, ND, ND, ND, ND. With GFNLDEYGIS / VIYADGRRTFYADNVK / GEVAGTFDI [En_HC] the result was -0.63, -0.59, -0.14, -0.68, -0.84, -0.46. For GFDLNEYGIS / VIYADGVRKAYADSVK / GEVAGTFDT [En_Gen], the assay gave -0.76, -1.00, -0.74, -1.31, -1.13, -1.25. The variant GFDLEEYGIS / VIYADGQRTFYADSVK / GNVAGTFDV [En_Gen] showed -0.80, -0.96, -0.66, -0.35, -1.05, -0.26. The variant GFDLNEYGIS / VIYADGVRTAYADSVK / GQVAGTFDM [En_Gen] showed -0.28, 0.49, -0.21, -0.11, 0.23, 0.10.

With GRDLDEYGIS / VIYADGTRKMYAVSFK / GEHGGTFLM [En_Gibbs] the result was ND, ND, ND, ND, ND, ND. The variant GFDLNEYGIS / VIYADGRRTFYADSVK / GNQAGTFIT [En_HC] showed 0.80, 0.52, 0.72, 1.47, 0.50, 0.89. For EFQIQDYGIS / VIYADGSRTAYAESVK / GNIGGTIST [En_Gibbs], the assay gave ND, ND, ND, ND, ND, ND. With GFDLDEYGIS / VIYADGMRTAYSDSVK / GGNAGTFDL [En_Gen] the result was ND, 2.40, ND, ND, ND, ND. The variant GFDLNEYGIS / VIYADGQRTFYSDSVK / GTVAGTFDS [En_HC] showed -0.63, -0.77, -0.67, -0.92, -0.71, -0.98.

For GFDLNEYGIS / VIYADGLRTAYVDSVK / GNVAGTFDL [En_Gen], the assay gave -0.09, -0.41, -0.51, -0.73, -0.50, -0.14. With GFGLDEYGIS / VIYADGQRTVYTQDVK / GLYTFKKGI [En_Gibbs] the result was ND, ND, ND, ND, ND, ND. With GFDLESYGIS / VIYADGMRTAYADSVK / GNVAGTFDS [En_HC] the result was -0.53, -0.78, -0.64, -0.91, -0.89, -0.20. The variant GQDLAEYGIS / VIYADGKRTMYANDVK / GTNVGQGGT [En_Gibbs] gave ND, ND, ND, ND, ND, ND. With GFDLNEYGIS / VIYADGRRTVYADSVK / GENAGTFDI [En_Gen] the result was -0.01, -0.36, -0.45, -0.36, -0.43, -0.27.

The variant GFDLNEYGIS / VIYADGIRSRYANKVK / GNGAGTLDD [En_Gibbs] showed ND, ND, ND, ND, ND, ND. With GESLEEYGIS / VIYADGMRNAYVSKVK / GTVSGDFTI [En_Gibbs] the result was ND, ND, ND, ND, ND, ND. The variant GFDLDEYGIS / VIYADGMRTFYADSVK / GNVAGTFDL [En_Gen] gave 0.74, 0.67, 0.37, 0.39, 0.30, 0.32. With GFDLNEYGIS / VIYADGTRTFYTDSVK / GEVAGTFDS [En_HC] the result was -0.15, -0.76, -0.43, -0.97, -0.61, -0.48. The variant GFDLNEYGIS / VIYADGMRTYYADSVK / GNVAGTFDM [En_Gen] showed -0.27, -0.54, -0.39, -0.55, -0.66, -0.36.

The variant GFDLNEYGIS / VIYADGVRKAYSDSVK / GEVAGTFDV [En_Gen] gave ND, -1.23, ND, -0.18, ND, -0.63. The variant GFDLNEYGIS / VIYADGVRTAYADSVK / GQTAGTFDV [En_Gen] showed 0.06, -0.21, -0.20, -0.46, -0.22, 0.36. The variant GFDLNEYGIS / VIYADGRRTFYTDDVK / GEFAGTFDL [En_HC] showed -0.20, 1.21, 0.27, -0.42, 0.63, -0.17. The variant GFDLNEYGIS / VIYADGRRTFYTDSVK / GEVAGTFDG [En_HC] gave -1.95, -2.63, -2.64, -2.78, -2.04, -2.47. With GKSLDEYGIS / VIYADGMRTMYADKFK / GKLTAGSFL [En_Gibbs] the result was ND, ND, ND, ND, ND, ND.

The variant GFDLNEYGIS / VIYADGMRTAYADSVK / GKVAGTFDL [En_Gen] showed -0.20, -0.18, 0.20, -0.44, -0.22, 0.28. The variant GFDLNEYGIS / VIYADGVRTAYADSVK / GSNAGTFDI [En_Gen] gave -0.26, -0.33, -0.67, -0.67, -0.47, -0.44. With GFWLDEYGIS / VIYADGKRVAYINSVK / GQFTYFTDV [En_Gibbs] the result was ND, ND, ND, ND, ND, ND. For GFDINEYGIS / VMYADGSRKVYQDKVK / GFQSGTFDT [En_Gibbs], the assay gave -0.42, -0.14, -0.33, -0.61, -0.41, -0.39. With GFDLNEYGIS / VIYADGRRTAYVDSVK / GEAAGTFDQ [En_HC] the result was -0.24, -0.62, -0.98, -0.71, -0.62, -0.57.

The last 4 entries again:

CDR-H1,CDR-H2,CDR-H3,group,log10 Kd (nM) by replicate
GFDLNEYGIS,VIYADGVRTAYADSVK,GSNAGTFDI,En_Gen,"-0.26, -0.33, -0.67, -0.67, -0.47, -0.44"
GFWLDEYGIS,VIYADGKRVAYINSVK,GQFTYFTDV,En_Gibbs,"ND, ND, ND, ND, ND, ND"
GFDINEYGIS,VMYADGSRKVYQDKVK,GFQSGTFDT,En_Gibbs,"-0.42, -0.14, -0.33, -0.61, -0.41, -0.39"
GFDLNEYGIS,VIYADGRRTAYVDSVK,GEAAGTFDQ,En_HC,"-0.24, -0.62, -0.98, -0.71, -0.62, -0.57"

The measurements come from Li et al. 2023 (doi:10.1038/s41467-023-39022-2) through the FLAb antibody collection.